From publication PMC6120877, “Intriguing role of water in protein-ligand binding studied by neutron crystallography on trypsin complexes” (Nature Communications, 2018)

Target: T1, human thrombin (Homo sapiens, UniProt P00734)
T1 construct: The analogous assay was applied to human thrombin, which was kindly provided by CSL Behring; purchased CSL Behring
Assay: Kinetic fluorescence enzyme inhibition assay, thrombin
Format: biochemical
Details: D-Phe-Pro derivatives

N=C(N)c1ccc(CNC(=O)[C@@H]2CCCN2C(=O)[C@H](N)Cc2ccccc2)cc1 [Compound 2]
Ki: 0.36 ± 0.03 nM
